In BindingDB's records for 14561081 (Instituto De Quimica Medica (Csic), 2003):
pIC50: −log10 of the molar value.

Chains of the proteins cited; added tags and fusions are not shown. Lines headed by an entry give the natural chain unless they say otherwise; changes in a name come on top.
UniProt G1T8E2: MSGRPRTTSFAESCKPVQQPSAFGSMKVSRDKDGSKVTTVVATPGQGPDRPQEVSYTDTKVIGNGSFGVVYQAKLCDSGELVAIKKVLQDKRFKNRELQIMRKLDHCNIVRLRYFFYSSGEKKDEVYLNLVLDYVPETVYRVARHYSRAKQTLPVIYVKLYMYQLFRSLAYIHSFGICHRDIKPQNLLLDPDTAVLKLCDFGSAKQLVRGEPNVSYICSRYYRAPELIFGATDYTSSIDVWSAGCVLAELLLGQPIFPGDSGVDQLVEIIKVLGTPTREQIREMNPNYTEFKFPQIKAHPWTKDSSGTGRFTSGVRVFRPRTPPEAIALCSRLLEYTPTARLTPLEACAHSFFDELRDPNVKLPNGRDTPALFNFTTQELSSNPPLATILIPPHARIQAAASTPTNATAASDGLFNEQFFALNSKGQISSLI

Biological target: Glycogen synthase kinase-3 beta [7-25] (Oryctolagus cuniculus, UniProt G1T8E2)

| SMILES | pIC50 |
| --- | --- |
| O=C(CBr)c1ccc(Cl)cc1 | 6.00 |
| COc1ccc(C(=O)CBr)cc1 | 6.00 |
| O=C(CBr)c1ccc([N+](=O)[O-])cc1 | 5.70 |
